Results taken from patent publication US20120258482A1, “PCNA METHYLTRANSFERASE” (INDIANA UNIVERSITY RESEARCH AND TECHNOLOGY CORPORATION, priority 2009, published 2012).

Tested on: carboxyl methyltransferase in MCF7 breast cancer cell extracts
Experiment: Vapor diffusion assay of SAM-dependent carboxyl methyltransferase activity in cell extracts
Assay type: biochemical, human
Conditions: 10 μg added to MCF7 cell extract, [3H-methyl]-SAM
Protocol: Vapor diffusion assay. The assay was performed basically as previously described (Murray, E. D., Jr. & Clarke, S. J Biol Chem 259, 10722-10732 (1984). MCF7 breast cancer cell extracts were assayed 1-2 h in the presence of [^3H-methyl]-SAM (NEN). Following incubation, extracts were equilibrated with 100 mM NaOH with 2% SDS and spotted onto filter paper folded into an accordion pleat and placed into the neck of a vial above scintillation fluid. ^3H-methanol present in the scintillation fluid was measured the following day (See FIG. 1).
To identify PCNA-dependent carboxyl methyltransferase activity in human cells, breast cancer cell extracts were assayed in the presence of radiolabeled-S-adenosyl-L-methionine (SAM). Methyl esters formed by SAM-dependent methyltransferase activity were hydrolyzed by the addition of base and the liberated radiolabeled methanol was measured by passive diffusion into scintillation fluid (See FIG. 1). Using this approach applicants detected enzymatic methyl esterification of substrates endogenous to the breast cancer cell extracts (FIG. 2A and FIG. 2B).

recombinant PCNA: purified recombinant proliferating cell nuclear antigen, CBP or 6× His fusion, methyltransferase substrate
increase in amount of methyl esters detected over background: five
